These results are taken from PubChem BioAssay AID1496 (Sanford-Burnham Center for Chemical Genomics, 2009).

Sequences of proteins named here, by UniProt entry; tags and fusion partners are left off.
UniProt Q01196, whole entry, looked up: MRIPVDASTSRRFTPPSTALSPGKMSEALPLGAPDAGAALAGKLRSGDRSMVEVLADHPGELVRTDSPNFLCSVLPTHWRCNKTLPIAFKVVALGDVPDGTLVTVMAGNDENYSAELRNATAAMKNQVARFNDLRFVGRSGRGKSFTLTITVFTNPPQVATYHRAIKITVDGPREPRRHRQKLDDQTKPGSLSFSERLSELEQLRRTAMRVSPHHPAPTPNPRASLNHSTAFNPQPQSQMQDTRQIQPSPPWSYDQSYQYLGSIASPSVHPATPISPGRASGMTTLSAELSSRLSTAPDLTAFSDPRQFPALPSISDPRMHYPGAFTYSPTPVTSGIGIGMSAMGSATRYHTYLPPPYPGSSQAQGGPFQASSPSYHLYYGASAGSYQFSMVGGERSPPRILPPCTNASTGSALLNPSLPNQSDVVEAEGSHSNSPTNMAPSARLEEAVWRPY
UniProt Q13951, whole entry, looked up: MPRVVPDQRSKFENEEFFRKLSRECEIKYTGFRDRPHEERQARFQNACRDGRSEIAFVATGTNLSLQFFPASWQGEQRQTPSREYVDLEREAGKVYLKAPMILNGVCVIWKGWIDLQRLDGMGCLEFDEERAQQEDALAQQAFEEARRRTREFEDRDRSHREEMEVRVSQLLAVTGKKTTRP

The list shows a part of the results, in another mix than the full data. Some tests of the compounds listed are not included; inactive here does not mean inactive elsewhere. Activity calls are given as the source filed them.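 The calls were made as follows: active = inhibition over about 50% at 20 µM in the single-dose screen (limit read from the data); inactive = the rest.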

For this test, the target named is Runt-related transcription factor 1 (Homo sapiens) + Core-binding factor subunit beta (Homo sapiens) (UniProt Q01196+Q13951). The test can be described thus: inhibitors of RUNX1 Runt–CBFb binding, primary screen, biochemical, FRET, Cerulean-Runt, Venus-CBFb, uHTS (AID 1496).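 Also: 0% = DMSO wells and 100% = excess unlabeled CBFb competitor control.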 As to conditions: Cerulean-Runt/Venus-CBFb FRET ratio 530/480, 1 h; at 20 µM; stronger effect = higher value. The essentials: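 test system = Cerulean-Runt domain fusion protein, energy donor | probe or stimulus = Venus-CBFb binding partner, 100 nM | incubation = two 1 h room-temperature incubations shielded from light | detection = fluorescence energy transfer, 422 nm excitation, 530/480 nm emission | measure = loss of energy transfer signal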
As a reminder, the inhibition is the drop in the measured response relative to a control, in per cent. Turning to `COc1cccc(C(=O)NCC2(N3CCCCC3)CCCCC2)c1`, the inhibition is inactive: 0.1%.

For the molecule `COc1ccc(Br)c(C(=O)NCC2(N3CCCCC3)CCCCC2)c1`, the inhibition is inactive: 6.1%.

`CN(C)c1cccc(C(=O)NCC2(N(C)C)CCCCC2)c1`: the inhibition is inactive: -1.1%.

Regarding `O=C(OC1CN2CCC1CC2)C(CO)(c1ccccc1)c1ccccc1` (stereo unspecified), the inhibition was inactive: -0.5%.

In the case of `CC(C)N1C(=O)CC2(CCN(CCOC(=O)C(O)(c3ccccc3)c3ccccc3)CC2)C1=O`, the inhibition is inactive: -2.6%.

For `CCN(CC)CC(C)C(C)OC(=O)C(O)(c1ccccc1)c1ccccc1` (stereo unspecified), the inhibition is inactive: -0.2%.

For the molecule `O=C(NCC1(N2CCCCC2)CCCCC1)c1cc([N+](=O)[O-])ccc1Cl`, the inhibition was inactive: -0.9%.

For the molecule `C=CCN1CCN(CCOC(=O)C(O)(c2ccccc2)c2ccccc2)CC1`, the inhibition is inactive: -0.1%.

On to `CCN1CCCC(OC(=O)C2(O)c3ccccc3C=Cc3ccccc32)C1` (stereo unspecified), for which the inhibition is inactive: -2%.

Turning to `CN(C)C1CCCC1OC(=O)C(O)(c1ccccc1)c1ccccc1` (stereo unspecified), the inhibition was inactive: -0.4%.

For the molecule `Cc1ccccc1C(=O)NCC1(N2CCCCC2)CCCCC1`, the inhibition was inactive: 2.1%.
